# Yeast mating assay B: variants of the scFv Ab-14

Values reported by Li et al. 2023, doi:10.1038/s41467-023-39022-2 (FLAb copy).

All variants were tested on one target, the spike HR2 peptide PDVDLGDISGINAS (SARS-CoV-2).

Each scFv is VH, a (GGGGS)3 linker, VL, as in the parent Ab-14, and differs from it in the CDRs of the heavy chain only.
VH: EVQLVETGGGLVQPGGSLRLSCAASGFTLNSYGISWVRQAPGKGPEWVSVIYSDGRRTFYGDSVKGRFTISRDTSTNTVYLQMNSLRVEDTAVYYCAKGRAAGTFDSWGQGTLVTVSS
VL: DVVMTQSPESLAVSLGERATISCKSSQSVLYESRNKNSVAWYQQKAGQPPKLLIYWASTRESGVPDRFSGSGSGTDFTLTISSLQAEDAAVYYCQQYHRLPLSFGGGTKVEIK

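The parent was found by panning a naive human phage display library on the peptide. This is the validation round: designs drawn from the data on random variants, tested in the same kind of assay. Group labels follow the data file (Ctrl: baseline library sampled from a position-specific scoring matrix, with some repeated check sequences; En: ensemble of fine-tuned language models; HC: hill climbing; Gen: genetic algorithm; Gibbs: Gibbs sampling; a sequence that several methods proposed may carry one label only). The assay is AlphaSeq: two haploid yeast populations carry antibody and antigen on their surface. The frequency of each diploid, read from paired DNA barcodes, reflects how well the two displayed proteins bind. A regression on co-assayed BCL2-family reference pairs converts the normalised counts of each replicate to an apparent Kd. Each pool was mated in six replicate cultures.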

Variants are written as CDR1, CDR2 and CDR3 of the heavy chain (limits as in the source). Parent: GFTLNSYGIS, VIYSDGRRTFYGDSVK, GRAAGTFDS.
Variants here have more than six changes.
Numbers give log10(Kd / nM), so 0 is 1 nM and 3 is 1 µM. Smaller is tighter.
Averages over replicates are reported, and they cover detected replicates only.
Where no diploid with the target was found in any replicate, the entry reads "nd": below detection, most likely a poor binder, though not proof of it.

CDR-H1,CDR-H2,CDR-H3,group,"mean, log10 nM",seen in
GFDLQEYGVS,VIYADGRRMVYTNKFK,GGSTGTFDF,En_Gibbs,nd,0 of 6
GFDLQEYGIS,VIYADGMRVSYSDNVK,GRGGVVFIA,En_Gibbs,-0.58,6 of 6
GFDLNEYGIS,VIYADGKRTAYSDSVK,GNEAGTFDM,En_Gen,-1.20,6 of 6
GFDLDEYGIS,VIYADGRRTFYQDSVK,GNVAGTFDE,En_HC,0.97,6 of 6
GFDLVEYGIS,VIYADGQRTVYADTVK,GHHGGIFDM,En_Gibbs,0.18,6 of 6
GFDLDEYGIS,VIYADGSRTAYADSVK,GENAGTFDL,En_Gen,0.07,6 of 6
GFDLNEYGIS,VIYADGKRTYYADSVK,GNVAGTFDV,En_Gen,0.69,6 of 6
GFDLNEYGIS,VIYADGVRTFYADSVK,GETAGTFDV,En_Gen,-0.21,6 of 6
GFDLNEYGIS,VIYADGSRTFYADSVK,GEIAGSFDQ,En_HC,-0.23,6 of 6
GFDLDEYGIS,VIYADGRRTAYADSVK,GTNAGTFDA,En_HC,0.00,6 of 6
GFNLNEYGIS,VIYADGRRTFYADSVK,GEVAGTFDV,En_HC,-0.38,6 of 6
GFDLNEYGIS,VIYADGRRTFYQDSVK,GNVAGTFDV,En_HC,-0.51,6 of 6
GFDLNEYGIS,VIYADGRRTFYADSVK,GQIAGTFDM,En_HC,0.08,2 of 6
GFDLNEYGIS,VIYADGRRTAYAESVK,GNVAGTFDV,En_Gen,-0.17,6 of 6
GFDLNEYGIS,VIYADGMRTAYSDSVK,GNTAGTFDM,En_Gen,-0.61,6 of 6
GFDLNEYGIS,VIYADGHRTFYSDSVK,GQVAGTFDA,En_HC,-0.38,6 of 6
GFDLNEYGIS,VIYADGMRSFYADSVK,GENAGTFDV,En_Gen,-0.02,6 of 6
GFDLNEYGIS,VIYADGMRTYYADDVK,GNVAGTFDI,En_Gen,-0.29,6 of 6
GFDLNEYGIS,VIYADGQRTAYADDVK,GEVAGTFDT,En_Gen,-0.39,6 of 6
GDDLEEYGIS,VIYADGKRKAYKNKAK,GQTAGSFDV,En_Gibbs,nd,0 of 6
GQDLDEYGIS,VIYADGFRTAYADTVK,GTLGFMLDS,En_Gibbs,nd,0 of 6
GFNLDEYGIS,VIYADGYRRAYAQEVK,GMNSGEGFT,En_Gibbs,1.86,1 of 6
GFDLNEYGIS,VIYADGRRTAYEDSVK,GEAAGTFDQ,En_HC,-0.51,6 of 6
GFDLNEYGIS,VIYADGVRTQYIDSVK,GEAAGTFDL,En_HC,nd,0 of 6
GFDLGEYGVS,VIYADGLRAQYASKVK,GNFSGNITV,En_Gibbs,nd,0 of 6
GFDLNEYGIS,VIYADGMRTYYADSVK,GNVAGTFDQ,En_Gen,-0.34,6 of 6
GFDLNEYGIS,VIYADGMRTAYADDVK,GETAGTFDT,En_Gen,-0.52,6 of 6
GFNIDEYGIS,VIYADGLRYHYANSVK,GEMAGTFMV,En_Gibbs,2.26,1 of 6
GFDLNEYGIS,VIYADGQRTFYADDVK,GNVAGTFDV,En_Gen,-0.12,6 of 6
GFDLNEYGIS,VIYADGKRTAYADSVK,GNNAGTFDI,En_Gen,-0.10,3 of 6
GFSLDEYGIS,VIYADGNRQVYIDKVK,GNYGGDFIE,En_Gibbs,nd,0 of 6
GFDLNEYGIS,VIYADGQRTFYADSVK,GQIAGTFDQ,En_HC,-0.76,6 of 6
GFNLDEVGIS,VIYADGSRVAYVDNVK,GTVDTVGFV,En_Gibbs,nd,0 of 6
GFDLNEYGIS,VIYADGRRTQYIDSVK,GNEAGTFDI,En_HC,-0.22,6 of 6
QNTLNSYGIS,VIYSDGRRTFYQDSVK,CRQSGTDDE,Ctrl,1.60,1 of 6
GFNLDEFGIS,VIYADGQRTAYLDSFK,GENVNAVDT,En_Gibbs,nd,0 of 6
GFDLNEYGIS,VIYADGQRTAYVDSVK,GNQAGTFDV,En_Gen,0.49,6 of 6
GFNLDEEGIH,VIYADGKRTAYQGSVK,GQNVGNFNV,En_Gibbs,nd,0 of 6
GFDLNEYGIS,VIYADGRRTFYADSVK,GEAGGTFDK,En_HC,nd,0 of 6
GFDLNEYGIS,VIYADGRRTAYDDSVK,GQVAGTFDT,En_HC,-0.35,6 of 6
GFDLNEYGIS,VIYADGRRTFYADSVK,GQLAGTFDF,En_HC,-0.55,6 of 6
GFDLNEYGIS,VIYADGQRTFYADSVK,GNQAGTFDV,En_Gen,-0.49,6 of 6
GFDLDEYGIS,VIYADGRRTAYADNVK,GEVAGTFDI,En_Gen,-0.49,6 of 6
GFNLNEYGIS,VIYADGKRTFYTDDVK,GEFAGTFDL,En_HC,-0.39,6 of 6
GFDLNEYGIS,VIYADGMRTAYVDSVK,GNEAGTFDV,En_Gen,-0.37,5 of 6
GFNLEDYGIS,VIYADGRRTAYADSVK,GKVAGTFDV,En_HC,-0.51,6 of 6
GFDLNEYGIS,VIYADGLRTAYTDSVK,GNVAGTFDV,En_Gen,-0.38,6 of 6
GFDIEEFGIS,VIYADGIQTAYAQKVK,GTIAGTFVD,En_Gibbs,nd,0 of 6
GFDLDEYGIS,VIYADGRRTAYSDSVK,GENAGTFDL,En_Gen,0.25,6 of 6

Excerpt, the final 8 entries:

| CDR-H1 | CDR-H2 | CDR-H3 | group | mean, log10 nM | seen in |
|---|---|---|---|---|---|
| GFDLNEYGIS | VIYADGQRTFYADSVK | GNQAGTFDV | En_Gen | -0.49 | 6 of 6 |
| GFDLDEYGIS | VIYADGRRTAYADNVK | GEVAGTFDI | En_Gen | -0.49 | 6 of 6 |
| GFNLNEYGIS | VIYADGKRTFYTDDVK | GEFAGTFDL | En_HC | -0.39 | 6 of 6 |
| GFDLNEYGIS | VIYADGMRTAYVDSVK | GNEAGTFDV | En_Gen | -0.37 | 5 of 6 |
| GFNLEDYGIS | VIYADGRRTAYADSVK | GKVAGTFDV | En_HC | -0.51 | 6 of 6 |
| GFDLNEYGIS | VIYADGLRTAYTDSVK | GNVAGTFDV | En_Gen | -0.38 | 6 of 6 |
| GFDIEEFGIS | VIYADGIQTAYAQKVK | GTIAGTFVD | En_Gibbs | nd | 0 of 6 |
| GFDLDEYGIS | VIYADGRRTAYSDSVK | GENAGTFDL | En_Gen | 0.25 | 6 of 6 |

In the paper, a design with two or fewer of six values counts as a poor binder.
Background: pairings of all heavy chain designs with three empty control strains gave a value in 1% of cases (median 2.08, 5th percentile 0.84). Values in that range, when seen in few replicates, are hard to tell from nonspecific mating.
A sequence measured in both rounds can read differently, since the two assays cover different ranges.